pIC50: −log10 of the molar value. Where two headings read alike, the source gives them in different places.
Biological target: PD-1/PD-L1 interaction (Homo sapiens, UniProt Q9NZQ7)
Assay: PD-1/PD-L1 HTRF assay
Format: biochemical
Conditions: for IC50: read-out: IC50, anti-PD-1/PD-L1 potency, values given in μM

The chains behind the UniProt entries cited, without tags or fusion partners. Residues count along the entry.
UniProt Q9NZQ7, 19-238 limits assumed: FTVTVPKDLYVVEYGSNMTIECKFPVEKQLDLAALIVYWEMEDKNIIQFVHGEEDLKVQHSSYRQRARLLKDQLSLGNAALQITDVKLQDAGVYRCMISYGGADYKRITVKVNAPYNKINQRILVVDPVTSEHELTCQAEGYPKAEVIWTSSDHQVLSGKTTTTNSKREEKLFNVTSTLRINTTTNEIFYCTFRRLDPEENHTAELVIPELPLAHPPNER

Row | IC50 | pIC50 (read-out: IC50, anti-PD-1/PD-L1 potency) | Structure (SMILES)
1 | 1 µM |  | Cc1c(COc2cc(OCc3ccc(OC(F)(F)F)cc3)c(CN3CCCCC3C(=O)O)cc2Cl)cccc1-c1ccccc1 (stereo not drawn)
2 | 1 µM |  | CCOC(=O)COc1cc(OCc2cccc(-c3ccccc3)c2C)c(Cl)cc1CN1CCCCC1C(=O)O (stereo not drawn)
3 |  | 7.84 | Cc1c(COc2cc(OCc3cccc(C#N)c3)c(CN3CCCCC3C(=O)O)cc2Cl)cccc1-c1ccccc1 (single isomer, unassigned)

Reference: paper PMC9974934, “Bifunctional small molecules targeting PD-L1/CXCL12 as dual immunotherapy for cancer treatment” (Signal Transduction and Targeted Therapy, 2023)
